These are literature values, as cited in article PMC10329699, “Pharmacokinetics, biodistribution and toxicology of novel cell-penetrating peptides” (Scientific Reports, 2023).

For the data set the following is noted: i.v. injection in rats; ref Lee et al. 19, 40, 41.

As for TAT-biotin, the T1/2 distribution phase was 0.87 min and the T1/2 elimination phase is reported as 107 min.
